Measurements as given in PubChem BioAssay (NCI).
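The compound was tested at five concentrations on cells cultured in 96-well plates, with a 48-hour exposure period. At the GI50, growth is halved. TGI marks complete inhibition of growth.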

Legend:
Experiment in all cases: DTP human tumour cell line panel, 48 h
[1] = test system: 786-0 renal
[2] = test system: A498 renal
[3] = test system: A549 NSCLC
[4] = test system: ACHN renal
[5] = test system: BT-549 breast
[6] = test system: CAKI-1 renal
[7] = test system: CCRF-CEM leukemia
[8] = test system: COLO 205 colon
[9] = test system: DU-145 prostate
[10] = test system: EKVX NSCLC
[11] = test system: HCC-2998 colon
[12] = test system: HCT-116 colon
[13] = test system: HCT-15 colon
[14] = test system: HL-60(TB) leukemia
[15] = test system: HOP-62 NSCLC
[16] = test system: HS 578T breast
[17] = test system: HT29 colon
[18] = test system: IGROV1 ovarian
[19] = test system: K-562 leukemia
[20] = test system: KM12 colon
[21] = test system: LOX IMVI melanoma
[22] = test system: M14 melanoma
[23] = test system: MALME-3M melanoma
[24] = test system: MCF7 breast
[25] = test system: MDA-MB-231 breast
[26] = test system: MDA-MB-435
[27] = test system: MOLT-4 leukemia
[28] = test system: NCI-H226 lung
[29] = test system: NCI-H23 lung
[30] = test system: NCI-H322M lung
[31] = test system: NCI-H460 lung
[32] = test system: NCI-H522 lung
[33] = test system: NCI/ADR-RES ovarian
[34] = test system: OVCAR-3 ovarian
[35] = test system: OVCAR-4 ovarian
[36] = test system: OVCAR-5 ovarian
[37] = test system: OVCAR-8 ovarian
[38] = test system: PC-3 prostate
[39] = test system: RPMI-8226 leukemia
[40] = test system: RXF 393 renal
[41] = test system: SF-268 CNS
[42] = test system: SF-295 CNS
[43] = test system: SF-539 CNS
[44] = test system: SK-MEL-2 melanoma
[45] = test system: SK-MEL-28 melanoma
[46] = test system: SK-MEL-5 melanoma
[47] = test system: SK-OV-3 ovarian
[48] = test system: SN12C renal
[49] = test system: SNB-19 CNS
[50] = test system: SNB-75 CNS
[51] = test system: SR leukemia
[52] = test system: SW-620 colon
[53] = test system: T-47D breast
[54] = test system: TK-10 renal
[55] = test system: U251 CNS
[56] = test system: UACC-257 melanoma
[57] = test system: UACC-62 melanoma
[58] = test system: UO-31 renal

Question: For `O=Cc1ccc(N(CCCl)CCCl)cc1Cl`, which GI50 [1] is on record?
Answer: The GI50 was 22 µM.

Question: And the TGI [1]?
Answer: The TGI was 82.7 µM.

Question: And the GI50 [2]?
Answer: The GI50 was 0.0435 µM.

Question: What about the TGI [2] of the same compound?
Answer: Its TGI is 0.172 µM.

Question: What about the GI50 [3] of the same compound?
Answer: Its GI50 is 2.98 µM.

Question: And the TGI [3]?
Answer: The TGI was 53.6 µM.

Question: And the GI50 [4]?
Answer: Its GI50 is 31.7 µM.

Question: What about the TGI [4] of the same compound?
Answer: The TGI was greater than 100 µM.

Question: What about the GI50 [5] of the same compound?
Answer: The GI50 was 39.7 µM.

Question: And the TGI [5]?
Answer: Its TGI is greater than 100 µM.

Question: What about the GI50 [6] of the same compound?
Answer: Its GI50 is 2.82 µM.

Question: And the TGI [6]?
Answer: Its TGI is 26.6 µM.

Question: What about the GI50 [7] of the same compound?
Answer: The GI50 was 6.42 µM.

Question: What about the TGI [7] of the same compound?
Answer: Its TGI is greater than 100 µM.

Question: And the GI50 [8]?
Answer: Its GI50 is 5.86 µM.

Question: What about the TGI [8] of the same compound?
Answer: Its TGI is 23.1 µM.

Question: What about the GI50 [9] of the same compound?
Answer: The GI50 was 18.8 µM.

Question: And the TGI [9]?
Answer: The TGI was 98.9 µM.

Question: And the GI50 [10]?
Answer: Its GI50 is 28.1 µM.

Question: And the TGI [10]?
Answer: Its TGI is greater than 100 µM.

Question: What about the GI50 [11] of the same compound?
Answer: The GI50 was 9.3 µM.

Question: And the TGI [11]?
Answer: The TGI was 46.8 µM.

Question: And the GI50 [12]?
Answer: The GI50 was 2.72 µM.

Question: And the TGI [12]?
Answer: Its TGI is 28.5 µM.

Question: And the GI50 [13]?
Answer: The GI50 was 29.5 µM.

Question: And the TGI [13]?
Answer: The TGI was greater than 100 µM.

Question: And the GI50 [14]?
Answer: The GI50 was 26.8 µM.

Question: What about the TGI [14] of the same compound?
Answer: Its TGI is 73.3 µM.

Question: What about the GI50 [15] of the same compound?
Answer: Its GI50 is 3.67 µM.

Question: What about the TGI [15] of the same compound?
Answer: The TGI was 46.6 µM.

Question: And the GI50 [16]?
Answer: Its GI50 is 64 µM.

Question: What about the TGI [16] of the same compound?
Answer: The TGI was greater than 100 µM.

Question: What about the GI50 [17] of the same compound?
Answer: The GI50 was 19.7 µM.

Question: What about the TGI [17] of the same compound?
Answer: The TGI was 66.7 µM.

Question: What about the GI50 [18] of the same compound?
Answer: Its GI50 is 0.966 µM.

Question: And the TGI [18]?
Answer: Its TGI is 11.3 µM.

Question: And the GI50 [19]?
Answer: Its GI50 is 22.2 µM.

Question: What about the TGI [19] of the same compound?
Answer: Its TGI is greater than 100 µM.

Question: And the GI50 [20]?
Answer: The GI50 was 42 µM.

Question: And the TGI [20]?
Answer: Its TGI is greater than 100 µM.

Question: What about the GI50 [21] of the same compound?
Answer: The GI50 was 20.9 µM.

Question: And the TGI [21]?
Answer: Its TGI is 62.2 µM.

Question: What about the GI50 [22] of the same compound?
Answer: Its GI50 is 58.8 µM.

Question: What about the TGI [22] of the same compound?
Answer: Its TGI is greater than 100 µM.

Question: What about the GI50 [23] of the same compound?
Answer: Its GI50 is 26.1 µM.

Question: What about the TGI [23] of the same compound?
Answer: The TGI was 75.5 µM.

Question: What about the GI50 [24] of the same compound?
Answer: The GI50 was 0.641 µM.

Question: And the TGI [24]?
Answer: The TGI was 27.6 µM.

Question: And the GI50 [25]?
Answer: Its GI50 is 32.5 µM.

Question: And the TGI [25]?
Answer: The TGI was 74.1 µM.

Question: What about the GI50 [26] of the same compound?
Answer: The GI50 was 40.3 µM.

Question: What about the TGI [26] of the same compound?
Answer: The TGI was greater than 100 µM.

Question: And the GI50 [27]?
Answer: Its GI50 is 29.1 µM.

Question: And the TGI [27]?
Answer: The TGI was 78.7 µM.

Question: And the GI50 [28]?
Answer: Its GI50 is 0.0351 µM.

Question: What about the TGI [28] of the same compound?
Answer: The TGI was 0.226 µM.

Question: And the GI50 [29]?
Answer: Its GI50 is 6.78 µM.

Question: What about the TGI [29] of the same compound?
Answer: Its TGI is 70.7 µM.

Question: What about the GI50 [30] of the same compound?
Answer: The GI50 was greater than 100 µM.

Question: And the TGI [30]?
Answer: The TGI was greater than 100 µM.

Question: What about the GI50 [31] of the same compound?
Answer: The GI50 was 0.139 µM.

Question: What about the TGI [31] of the same compound?
Answer: Its TGI is 12.1 µM.

Question: What about the GI50 [32] of the same compound?
Answer: The GI50 was 54.4 µM.

Question: What about the TGI [32] of the same compound?
Answer: Its TGI is greater than 100 µM.

Question: What about the GI50 [33] of the same compound?
Answer: Its GI50 is 22.9 µM.

Question: And the TGI [33]?
Answer: The TGI was greater than 100 µM.

Question: What about the GI50 [34] of the same compound?
Answer: The GI50 was 2.21 µM.

Question: And the TGI [34]?
Answer: Its TGI is 6.43 µM.

Question: What about the GI50 [35] of the same compound?
Answer: The GI50 was 2.8 µM.

Question: And the TGI [35]?
Answer: The TGI was 98.6 µM.

Question: What about the GI50 [36] of the same compound?
Answer: The GI50 was 0.861 µM.

Question: What about the TGI [36] of the same compound?
Answer: The TGI was 7.83 µM.

Question: And the GI50 [37]?
Answer: The GI50 was 25.1 µM.

Question: What about the TGI [37] of the same compound?
Answer: The TGI was greater than 100 µM.

Question: And the GI50 [38]?
Answer: The GI50 was 24.9 µM.

Question: What about the TGI [38] of the same compound?
Answer: Its TGI is greater than 100 µM.

Question: What about the GI50 [39] of the same compound?
Answer: The GI50 was 13.8 µM.

Question: What about the TGI [39] of the same compound?
Answer: The TGI was 74.6 µM.

Question: And the GI50 [40]?
Answer: The GI50 was 14.8 µM.

Question: And the TGI [40]?
Answer: The TGI was 51.7 µM.

Question: And the GI50 [41]?
Answer: Its GI50 is 31.3 µM.

Question: What about the TGI [41] of the same compound?
Answer: The TGI was greater than 100 µM.

Question: And the GI50 [42]?
Answer: Its GI50 is 0.425 µM.

Question: What about the TGI [42] of the same compound?
Answer: The TGI was 9.47 µM.

Question: What about the GI50 [43] of the same compound?
Answer: The GI50 was 27.4 µM.

Question: What about the TGI [43] of the same compound?
Answer: Its TGI is 77.9 µM.

Question: What about the GI50 [44] of the same compound?
Answer: The GI50 was 28.7 µM.

Question: And the TGI [44]?
Answer: Its TGI is 78.8 µM.

Question: And the GI50 [45]?
Answer: Its GI50 is 33.2 µM.

Question: And the TGI [45]?
Answer: Its TGI is greater than 100 µM.

Question: What about the GI50 [46] of the same compound?
Answer: The GI50 was 11.3 µM.

Question: And the TGI [46]?
Answer: The TGI was 27.2 µM.

Question: What about the GI50 [47] of the same compound?
Answer: The GI50 was 11.1 µM.

Question: And the TGI [47]?
Answer: The TGI was 55.4 µM.

Question: And the GI50 [48]?
Answer: Its GI50 is 23.6 µM.

Question: What about the TGI [48] of the same compound?
Answer: Its TGI is greater than 100 µM.

Question: And the GI50 [49]?
Answer: Its GI50 is 32.9 µM.

Question: And the TGI [49]?
Answer: Its TGI is greater than 100 µM.

Question: And the GI50 [50]?
Answer: The GI50 was 24.4 µM.

Question: What about the TGI [50] of the same compound?
Answer: The TGI was 86.9 µM.

Question: What about the GI50 [51] of the same compound?
Answer: The GI50 was 49.2 µM.

Question: What about the TGI [51] of the same compound?
Answer: Its TGI is greater than 100 µM.

Question: What about the GI50 [52] of the same compound?
Answer: Its GI50 is 17.8 µM.

Question: What about the TGI [52] of the same compound?
Answer: Its TGI is greater than 100 µM.

Question: What about the GI50 [53] of the same compound?
Answer: Its GI50 is 1.04 µM.

Question: And the TGI [53]?
Answer: Its TGI is 18.4 µM.

Question: And the GI50 [54]?
Answer: Its GI50 is 0.384 µM.

Question: What about the TGI [54] of the same compound?
Answer: The TGI was 2.45 µM.

Question: What about the GI50 [55] of the same compound?
Answer: The GI50 was 7.61 µM.

Question: What about the TGI [55] of the same compound?
Answer: Its TGI is 50.5 µM.

Question: What about the GI50 [56] of the same compound?
Answer: Its GI50 is 0.368 µM.

Question: And the TGI [56]?
Answer: Its TGI is 2.31 µM.

Question: And the GI50 [57]?
Answer: The GI50 was 0.38 µM.

Question: What about the TGI [57] of the same compound?
Answer: Its TGI is 4.1 µM.

Question: And the GI50 [58]?
Answer: Its GI50 is 18.4 µM.

Question: What about the TGI [58] of the same compound?
Answer: The TGI was 73 µM.
